Laboratory results: ChEMBL document CHEMBL2424628, “Discovery of potent and selective nonsteroidal indazolyl amide glucocorticoid receptor agonists” (Bioorg Med Chem Lett, 2013)

What was measured:
Glucocorticoid receptor [1] = target: T1, Glucocorticoid receptor (Homo sapiens, UniProt P04150); assay: Transactivation of glucocorticoid receptor ligand binding domain (unknown origin) transfected in human HeLa cells assessed as activation of NP-1 by GAL4 luciferase reporter gene assay; type: cell-based
T1 sequence (P04150 whole entry): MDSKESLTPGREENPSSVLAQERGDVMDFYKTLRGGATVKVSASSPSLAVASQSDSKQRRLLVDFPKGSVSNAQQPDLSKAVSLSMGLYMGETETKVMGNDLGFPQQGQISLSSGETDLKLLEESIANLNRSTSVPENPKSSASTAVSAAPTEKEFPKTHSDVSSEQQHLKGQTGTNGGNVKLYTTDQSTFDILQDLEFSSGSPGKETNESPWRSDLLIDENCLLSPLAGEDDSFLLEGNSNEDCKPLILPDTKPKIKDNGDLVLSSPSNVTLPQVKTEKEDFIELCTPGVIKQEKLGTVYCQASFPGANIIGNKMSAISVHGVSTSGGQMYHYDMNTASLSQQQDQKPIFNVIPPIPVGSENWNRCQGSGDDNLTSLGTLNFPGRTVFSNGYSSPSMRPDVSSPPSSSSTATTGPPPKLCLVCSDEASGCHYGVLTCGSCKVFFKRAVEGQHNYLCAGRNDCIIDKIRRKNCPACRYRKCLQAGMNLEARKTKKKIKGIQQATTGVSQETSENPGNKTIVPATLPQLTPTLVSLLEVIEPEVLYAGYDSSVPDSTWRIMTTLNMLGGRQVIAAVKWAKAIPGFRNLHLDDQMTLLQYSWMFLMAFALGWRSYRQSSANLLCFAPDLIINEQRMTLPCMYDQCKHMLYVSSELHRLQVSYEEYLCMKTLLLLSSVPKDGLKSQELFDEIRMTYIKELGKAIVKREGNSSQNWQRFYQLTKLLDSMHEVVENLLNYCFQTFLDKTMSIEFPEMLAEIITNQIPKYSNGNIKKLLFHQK

Glucocorticoid receptor [2] = target: T1, Glucocorticoid receptor; assay: Agonist activity at glucocorticoid receptor in human A549 cells assessed as inhibition of IL-1beta-induced NF-kappaB dependent E-selectin activation by luciferase reporter gene assay; type: cell-based
Glucocorticoid receptor [3] = target: T1, Glucocorticoid receptor; assay: Binding affinity to glucocorticoid receptor (unknown origin) by fluorescence polarization assay

EC50 (Glucocorticoid receptor [1]) [nM]	EC50 (Glucocorticoid receptor [2]) [nM]	Ki (Glucocorticoid receptor [3]) [nM]	SMILES
188	21		CC(C)(C(=O)Nc1nncs1)C(c1ccccc1)c1ccc2c(cnn2C2CCCCCC2)c1 (racemic)
> 10000	195		CC(C)n1ncc2cc(C(c3ccccc3)C(C)(C)C(=O)Nc3nncs3)ccc21 (racemic)
27		0.59	CC(C(=O)Nc1nncs1)[C@@H](c1ccccc1)c1ccc2c(cnn2-c2ccc(F)cc2)c1 (single isomer, unassigned; diastereomer 2)
0.1		0.48	CC(C(=O)Nc1nncs1)[C@@H](c1ccccc1)c1ccc2c(cnn2-c2ccc(F)cc2)c1 (single isomer, unassigned; diastereomer 3)
